Assay results as given in PMC4459640 (European journal of pharmaceutical sciences : official …, 2014).

The chains behind the UniProt entries cited, without tags or fusion partners. Where a name states a change or a piece, a line headed by the entry shows the natural chain unless it says otherwise.
UniProt P0DMM9: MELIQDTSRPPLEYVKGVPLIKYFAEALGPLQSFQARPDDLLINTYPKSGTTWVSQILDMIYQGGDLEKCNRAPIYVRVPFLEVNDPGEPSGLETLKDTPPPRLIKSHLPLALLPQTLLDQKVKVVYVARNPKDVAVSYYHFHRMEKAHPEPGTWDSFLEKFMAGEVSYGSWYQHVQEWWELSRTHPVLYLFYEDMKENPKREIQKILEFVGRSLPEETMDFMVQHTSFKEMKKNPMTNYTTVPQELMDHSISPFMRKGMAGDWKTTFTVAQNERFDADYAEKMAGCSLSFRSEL

Biological target: human SULT1A3 (Homo sapiens, UniProt P0DMM9)
Details: pH 7.5

With `CN1CC[C@]23c4c5ccc(O)c4O[C@H]2[C@@H](O)C=C[C@H]3[C@H]1C5` [Morphine, morphine] the “Vmax, SULT1A3” value was > 3.00 nmol/min/mg.
